For series [1] the following is noted: compared to PBS (pH 7); cited from earlier work.

Read-outs that look alike come from different tables or passages of the source.

For orientation: EC50 means the concentration at which the effect is half-maximal. Compound `C[C@H](NC(=O)[C@H](CCCNC(=N)N)NC(=O)[C@@H](N)CCCCN)C(=O)N[C@@H](CCCCN)C(=O)N[C@@H](CCCCN)C(=O)N[C@@H](Cc1ccccc1)C(=O)N[C@@H](Cc1ccccc1)C(=O)N[C@@H](CCCCN)C(=O)N[C@@H](CCCCN)C(=O)N1CCC[C@H]1C(=O)N[C@@H](CCCCN)C(N)=O` [ATRA-2] registered a half-maximal effective concentration (EC50) in the series on M. smegmatis mc^2155 (1 × 10^5 CFU per well, 10 mM potassium phosphate buffer pH 7.2 with 0.1% MB7H9, 3 h, 37 °C, CFU plated in triplicate, sigmoidal fit) above 100 µg/mL.

In the case of `CC[C@H](C)[C@H](NC(=O)[C@@H](NC(=O)[C@H](CCCCN)NC(=O)[C@@H]1CCCN1C(=O)[C@H](CCCCN)NC(=O)[C@H](CCCCN)NC(=O)[C@H](Cc1ccccc1)NC(=O)[C@H](Cc1ccccc1)NC(=O)[C@H](CCCCN)NC(=O)[C@H](CCCCN)NC(=O)[C@H](C)NC(=O)[C@H](CCCNC(=N)N)NC(=O)[C@H](CCCCN)NC(=O)[C@H](CCCCN)NC(=O)[C@@H](NC(=O)[C@H](CO)NC(=O)[C@H](CC(N)=O)NC(=O)[C@H](CCCCN)NC(=O)[C@H](CC(C)C)NC(=O)[C@H](CCCCN)NC(=O)[C@H](CCCCN)NC(=O)[C@H](Cc1ccccc1)NC(=O)[C@H](Cc1ccccc1)NC(=O)[C@H](CCCCN)NC(=O)[C@H](CCCCN)NC(=O)[C@H](Cc1ccccc1)NC(=O)[C@H](CCCNC(=N)N)NC(=O)[C@@H](N)CCCCN)C(C)C)C(C)C)C(=O)NCC(=O)N[C@H](C(=O)N[C@H](C(=O)N[C@@H](Cc1ccccc1)C(=O)N1CCC[C@H]1C(=O)N[C@@H](Cc1ccccc1)C(=O)O)[C@@H](C)O)C(C)C` [NA-CATH], the Hemolysis result in series [1] is listed as “did not elicit statistically significant hemolysis”. This compound showed an EC50 with M. smegmatis mc^2155 (same assay as μg/mL value, 3 h, 10 mM phosphate buffer) of 451 nM.
